Only some compounds are listed: those with a hit (about 2.1% of all), similar ones and a draw of the others.
Nrf2 block: inhibitors of Nrf2 signaling | Potency, µM (highest dose often 46 µM), actives largely listed as inhibitors | AID 504444 | A549 ARE-Fluc reporter, luciferase luminescence, 18-24 h | 360,000 compounds, 2.1% hits; also: nearly all actives have a fitted effect of over 60% in size
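Concentration-response testing used A549 ARE_Fluc cells at 5000 cells/well. Following an 18-24 h compound incubation, viability was read by fluorescence (Ex 405/Em 525) and luciferase output by luminescence.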
PTAP TSG101 blk: blocks PTAP/TSG101 interaction to inhibit HIV-1 budding; Q99816; Fluorescence polarization, FITC-PTAP peptide / Tsg101 binding; Potency, µM (doses to about 115 µM), hits mostly inhibitors; 340,000 tested, under 10 active; AID 493005; active = well fitted inhibition curve with a large enough effect in the main read-out, with a control signal flat, not every such curve was filed as active; inconclusive = small, poorly fitted or top-dose-only effect, or effect the other way, or a change in a side signal; inactive = no such curve, though single readings can be large or run the other way
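FP read-out: FITC-PTAP peptide, 50 nM final, binding Tsg101 binding domain, 10 uM final; 20 min, r.t.; 10 mM HEPES pH 7.5, 0.15 M NaCl, 0.01% Tween 20, 3 mM EDTA, 0.1 mM TCEP.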
Nrf2 ARE act: activates Nrf2 signaling | AREc32 ARE-luciferase reporter (MCF7-derived line), luminescence, 24 h | Potency, µM (top dose mostly 46.1 µM), most hits filed as activators | 410,000 compounds, 0.31% hits | AID 624171; also: nearly all actives have a fitted effect of over 65% in size
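For detection, Steady-Glo was added and plates sat 30 min at RT; before that, AREc32_Fluc cells grown overnight in OPTI-MEM/5% FBS had been treated with 23 nL compound for 24 hr at 37 deg C.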
GRP78 ERSR act: ER stress response induction in glioma. U87-MG GRP78 promoter luciferase reporter, 16 h. 420,000 compounds, 0.02% hits. Potency, µM, usual class: activators; also: series mostly up to about 76 µM; nearly all actives have a fitted effect of over 35% in size
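Stably transfected U87-MG glioma cells carrying a GRP78-based luciferase sensor; 16 h compound incubation. Luminescence end-point read 10 min after Bright-Glo addition at room temperature.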
miR-21 FLuc: miR-21 reporter, rising signal; Potency, µM (doses to about 38.3 µM); HeLa miR-21 FLuc reporter, luciferase, 48 h; 340,000 tested, under 10 active; active = well fitted rising curve with a large enough effect; inconclusive = small, poorly fitted or top-dose-only effect; inactive = no such curve, though single readings can be large or run the other way;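 further: miR-21 action dims this reporter so a rising signal means less miR-21 action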
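Compounds were titrated across several concentrations (up to approximately 40 uM) and incubated 48 hours with HeLa miR-21-FLuc reporter cells (miR-21 target sequence downstream of FLuc, endogenous miR-21). Readout was firefly luciferase luminescence after lytic detection reagent.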
A549 viability: counter-screen for Nrf2 inhibitors: cytotoxicity in A549 cells | A549 ARE-Fluc cells, CellTiter-Fluor viability, 18-24 h | Potency, µM (highest dose often 46 µM), actives largely listed as inhibitors | 390,000 compounds, 0.16% hits
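A549 ARE-Fluc cells in 5% FBS OPTI-MEM, 5000 cells/well, rested 2 h then exposed to compounds in concentration-response for 18-24 h at 37 °C. Viability by CellTiter-Fluor fluorescence (Ex 405/Em 525) after 30 min; luciferase luminescence (BugLite, 15 min, RT) read afterwards.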
A number is an active result. Unless noted, calls follow the shape of the dose curve; as a rule, active = well fitted curve in the direction sought with a large enough effect; inconclusive = small, poorly fitted or top-dose-only effect, or another doubt; inactive = no such curve, though single readings can be large; an effect the other way counts as inactive or inconclusive.

How did COC(=O)CC1C(=O)NCCN1C(=O)CN1Cc2ccccc2OC(c2ccccc2)C1 (configuration not stated) do in these assays?
GRP78 ERSR act: inactive

What do the screens show for `Cc1ccc(-n2c(O)c(C=NCc3ccccn3)c3ccccc3c2=O)cc1C`?
Nrf2 block: 10.3µM; PTAP TSG101 blk: inactive; Nrf2 ARE act: inactive; GRP78 ERSR act: inactive; miR-21 FLuc: inactive; A549 viability: inactive

What do the screens show for `Cc1ccc(CN(Cc2cc3cc4c(cc3[nH]c2=O)OCCO4)Cc2nnnn2Cc2ccco2)cc1`?
Nrf2 block: 25.9µM; PTAP TSG101 blk: inactive; Nrf2 ARE act: inactive; GRP78 ERSR act: inactive; miR-21 FLuc: inactive; A549 viability: inconclusive

How did CCCc1nnc(NC(=O)CCC(=O)N2CCN(Cc3ccc(Cl)cc3)CC2)s1 do in these assays?
Nrf2 block: 14.6µM; PTAP TSG101 blk: inactive; Nrf2 ARE act: inactive; GRP78 ERSR act: inactive; miR-21 FLuc: inactive; A549 viability: inactive

How did CCCc1nnc(NC(=O)CCC(=O)N2CCN(Cc3cc(F)ccc3OC)CC2)s1 do in these assays?
Nrf2 block: inactive; PTAP TSG101 blk: inactive; Nrf2 ARE act: inactive; GRP78 ERSR act: inactive; miR-21 FLuc: inactive; A549 viability: inactive

Results for Cc1ccc(OCCN2CCN(C(=O)CCC(=O)Nc3nnc(CC(C)C)s3)CC2)cc1 ?
Nrf2 block: 10.3µM; PTAP TSG101 blk: inactive; Nrf2 ARE act: inactive; GRP78 ERSR act: inactive; miR-21 FLuc: inactive; A549 viability: inactive

What do the screens show for `CCc1nnc(NC(=O)CCC(=O)N2CCN(Cc3ccc(Cl)cc3)CC2)s1`?
Nrf2 block: 23.1µM; PTAP TSG101 blk: inactive; Nrf2 ARE act: inactive; GRP78 ERSR act: inactive; miR-21 FLuc: inactive; A549 viability: inactive

Results for CC(C)Cc1nnc(NC(=O)CCC(=O)N2CCN(c3ccc(Cl)cc3)CC2)s1 ?
Nrf2 block: 18.4µM; PTAP TSG101 blk: inactive; Nrf2 ARE act: inactive; GRP78 ERSR act: inactive; miR-21 FLuc: inactive; A549 viability: inactive

What do the screens show for `CCc1nnc(NC(=O)CCC(=O)N2CCN(Cc3ccccc3)CC2)s1`?
Nrf2 block: inactive; PTAP TSG101 blk: inactive; Nrf2 ARE act: inactive; GRP78 ERSR act: inactive; miR-21 FLuc: inactive; A549 viability: inactive

How did COCC(=O)Nc1cc(C(=O)N2CCC(c3ccccc3)CC2)cc2nc(-c3ccccc3)n(C)c12 do in these assays?
GRP78 ERSR act: inactive

What do the screens show for `O=S1(=O)N=C(Oc2ccccc2F)c2ccccc21`?
Nrf2 block: inconclusive; A549 viability: inactive

What do the screens show for `CCc1nnc(NC(=O)Cc2ccc(S(=O)(=O)N3CCCCC3)cc2)s1`?
Nrf2 block: 20.6µM; PTAP TSG101 blk: inactive; Nrf2 ARE act: inactive; GRP78 ERSR act: inactive; A549 viability: inactive

How did CCCc1nc2cccnc2n1C1CCN(C(=O)Cn2nccc2C)CC1 do in these assays?
GRP78 ERSR act: inactive

How did CC1CN(c2ncnc3c2c(-c2ccccc2)cn3-c2ccc(F)cc2)CC(C)O1 (configuration not stated) do in these assays?
Nrf2 block: 18.4µM; PTAP TSG101 blk: inactive; Nrf2 ARE act: inactive; GRP78 ERSR act: inactive; miR-21 FLuc: inactive; A549 viability: inconclusive

How did OCCN1CCN(c2ncnc3c2c(-c2ccccc2)cn3-c2ccc(F)cc2)CC1 do in these assays?
Nrf2 block: inconclusive; PTAP TSG101 blk: inactive; Nrf2 ARE act: inactive; GRP78 ERSR act: inactive; miR-21 FLuc: inactive; A549 viability: inconclusive

What do the screens show for `Cc1ccc(-n2cc(-c3ccccc3)c3c(N4CCOCC4)ncnc32)cc1`?
Nrf2 block: 23.1µM; PTAP TSG101 blk: inactive; Nrf2 ARE act: inactive; GRP78 ERSR act: inactive; miR-21 FLuc: inactive; A549 viability: inactive

Results for CCCN(CC(=O)Nc1ccc(Cl)cc1Cl)C(=O)/C=C/c1ccco1 ?
Nrf2 block: inactive; PTAP TSG101 blk: inactive; Nrf2 ARE act: 11.2µM; GRP78 ERSR act: inactive; miR-21 FLuc: inactive; A549 viability: inactive

Results for CCc1nc2cc(C(=O)N3CCC[C@H]3CO)cc(NC(=O)c3ccccc3OC)c2n1C ?
GRP78 ERSR act: inactive

Results for Cc1cc(/C=C2/SC(=S)N(c3cccc(C(F)(F)F)c3)C2=O)c(C)n1-c1cccnc1 ?
Nrf2 block: 5.8µM; PTAP TSG101 blk: inactive; Nrf2 ARE act: inactive; GRP78 ERSR act: inactive; A549 viability: inconclusive

How did O=C1CCCC2=C1C1(CCSCC1)N=C(Nc1nc3ccccc3o1)N2 do in these assays?
Nrf2 block: inactive; A549 viability: inactive

Results for CCn1c(COc2ccc(OC)cc2)nc2ccccc21 ?
Nrf2 block: inactive; PTAP TSG101 blk: inactive; Nrf2 ARE act: inactive; GRP78 ERSR act: inactive; miR-21 FLuc: inactive; A549 viability: inactive

What do the screens show for `COc1ccc(OCc2nc3ccccc3n2C(C)C)cc1`?
Nrf2 block: 23.1µM; PTAP TSG101 blk: inactive; Nrf2 ARE act: inactive; GRP78 ERSR act: inactive; miR-21 FLuc: inactive; A549 viability: inactive

Results for O=C(Nc1nc2cc3c(cc2s1)OCCO3)c1ccc([N+](=O)[O-])o1 ?
Nrf2 block: inactive; PTAP TSG101 blk: inactive; Nrf2 ARE act: 7.08µM; GRP78 ERSR act: inconclusive; miR-21 FLuc: inactive; A549 viability: inactive

What do the screens show for `COc1ccc2nc(NC(=O)c3ccc([N+](=O)[O-])o3)sc2c1`?
Nrf2 block: inconclusive; PTAP TSG101 blk: inactive; Nrf2 ARE act: inconclusive; GRP78 ERSR act: inconclusive; miR-21 FLuc: inactive; A549 viability: inactive

What do the screens show for `O=C(Nc1nc2ccccc2s1)c1ccc([N+](=O)[O-])o1`?
Nrf2 block: inconclusive; PTAP TSG101 blk: inactive; Nrf2 ARE act: 3.55µM; GRP78 ERSR act: inactive; miR-21 FLuc: inactive; A549 viability: inactive

How did CCN(CC)S(=O)(=O)c1cccc(C(=O)Nc2nc3cc4c(cc3s2)OCCO4)c1 do in these assays?
Nrf2 block: 14.6µM; PTAP TSG101 blk: inactive; Nrf2 ARE act: inactive; GRP78 ERSR act: inactive; miR-21 FLuc: inconclusive; A549 viability: inconclusive

How did Cc1ccc(C)c(-c2nnc(NC(=O)c3ccc([N+](=O)[O-])o3)o2)c1 do in these assays?
Nrf2 block: inactive; PTAP TSG101 blk: inactive; Nrf2 ARE act: 3.55µM; GRP78 ERSR act: inactive; A549 viability: inactive

How did Cc1ccsc1C(=O)N(Cc1cc2ccc(F)cc2nc1N1CCC(O)CC1)CC1CCCO1 (configuration not stated) do in these assays?
GRP78 ERSR act: inactive

How did c1ccc(-c2[nH]ncc2-c2ccnc3ccccc23)nc1 do in these assays?
GRP78 ERSR act: inactive

Results for O=C(NN(c1ccccc1)c1ccccc1)c1ccc([N+](=O)[O-])o1 ?
Nrf2 block: inactive; PTAP TSG101 blk: inactive; Nrf2 ARE act: inconclusive; GRP78 ERSR act: inconclusive; miR-21 FLuc: inactive; A549 viability: inactive

How did Cc1cc(C)c2nc(NC(=O)c3ccc([N+](=O)[O-])o3)sc2c1 do in these assays?
Nrf2 block: inactive; PTAP TSG101 blk: inactive; Nrf2 ARE act: inconclusive; GRP78 ERSR act: inactive; miR-21 FLuc: inactive; A549 viability: inactive

Screening results deposited in PubChem BioAssay by National Center for Advancing Translational Sciences (NCATS).
